US5643954A, “Method of preventing and alleviating stress in a healthy mammal in need thereof” (priority 1993, dated 1997)

How the values were obtained:
mice = conditions: intragastric introduction
rats = conditions: intragastric introduction
animal's internal organs = conditions: about 200 mg/kg intragastric over 60 days
overall safety = conditions: in vivo

Substance: aminoacetic acid [claimed preparation]
- LD50 (mice): over 3000 mg/kg of animal weight
- LD50 (rats): over 3000 mg/kg of animal weight
- morphological and pathological changes of internal organs (animal's internal organs): did not discover morphological and pathological changes
- safety (overall safety): absolutely safe, exhibits mild action and has no contraindications
